From ChEMBL document CHEMBL4342405, “Clinical candidates modulating protein-protein interactions: The fragment-based experience” (Eur J Med Chem, 2019) come the findings set out here.

Sequences of proteins named here, by UniProt entry; tags and fusion partners are left off.
UniProt P10415, whole entry: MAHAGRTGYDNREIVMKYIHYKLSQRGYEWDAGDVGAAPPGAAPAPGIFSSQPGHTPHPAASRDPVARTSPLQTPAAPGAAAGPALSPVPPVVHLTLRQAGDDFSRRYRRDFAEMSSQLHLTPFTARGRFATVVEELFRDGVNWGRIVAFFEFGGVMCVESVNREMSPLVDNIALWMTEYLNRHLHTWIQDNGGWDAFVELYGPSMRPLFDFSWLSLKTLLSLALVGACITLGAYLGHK

The assay has as its target Apoptosis regulator Bcl-2 (Homo sapiens, UniProt P10415). Briefly: Inhibition of BCL-2 (unknown origin) by fluorescence polarization assay.

SMILES strings stand for the structures.

One may read the Ki as a measure of affinity in units of concentration, obtained from inhibition or displacement. Low readings indicate higher affinity, high ones lower affinity. `CC1(C)CCC(c2ccc(Cl)cc2)=C(CN2CCN(c3ccc(C(=O)NS(=O)(=O)c4ccc(N[C@H](CCN5CCOCC5)CSc5ccccc5)c(S(=O)(=O)C(F)(F)F)c4)cc3)CC2)C1` [NAVITOCLAX] displayed a Ki of less than 10 pM.
